Test results taken from patent US20210393539A1, “FERRITIN NANOPARTICLES COMPRISING A CHEMOTHERAPEUTIC AGENT” (INTHENA S.R.L., priority 2018, published 2021).

Tests used:
[1] = tested on: HER2+BC; test: HER2+ BC bearing mice, anticancer efficacy; assay type: in vivo; conditions: 5 times twice a week; HFn-DOX 1 mg/Kg i.v., TZ 5 mg/Kg i.p.
Source text: (§1) Main end-point were cardiotoxicity and anticancer efficacy. […] Mitochondrial morphology has been checked for cardiotoxicity.

[2] = set-up: species or system mice; conditions: mouse, in vivo
Source text: as §1

[3] = DLS hydrodynamic size; assay type: physicochemical; conditions: after purification
Source text: This process results in a three fold increase in HFn production after scale-up with 1 L bioreactor system. To increase HFn purity we introduced an additional step consisting of a FPLC gel filtration using Superose 6 Increase 10/300 GL column. […] DLS profiles evidenced a uniform monodisperse population with a mean Hydrodynamic size of 11.98. HFn is negatively charged with ζ-potential of −24.8±0.8 mV. Mycoplasma assay and bacterial culture reveal that the HFn product is free of contamination.
The resulting solution was stirred at room temperature for 2 h. In order to remove the excess of doxorubicin (DOX) and the adsorbed molecules, the solution was loaded onto a ZEBA spin desalting column (Thermofisher). This procedure is reproducible and allows to recover about 25% of incubated HFn. The recovery of DOX is about 27%. The mixture of HFn-DOX (ferritin nanoparticle comprising doxorubicin) could be concentrated up to a concentration of 400 μg/mL DOX. The nanodrug can be stored at 4° C. for short storage, or at −20° C. for long storage. Native protein gel electrophoresis and TEM images evidenced that the structural integrity of the HFn-DOX nanocage is retained after loading. DLS profiles evidenced a uniform monodisperse population with a mean Hydrodynamic size of 12.44±1.1 nm. HFn is negatively charged with ζ-potential of −25±0.9 mV.

[4] = Tumor targeting and biodistribution of Alexa fluor 660 labelled HFn in 4T1 tumor bearing mice; assay type: in vivo, BALB/c female mice
Source text: Then, we have assessed the in vivo activity of HFn-DOX nanodrug. We have used as proof of concept an ortotopic allograft breast cancer model obtained by injection of 4T1 cells in the mammary fat pad of 6-8 weeks old BALB/c female mice. This model is characterized by high level of proliferation, migration and invasiveness, DOX-inducible expression of MDR-1 (or P-glycoprotein) and stable luciferase expression. First, we have evaluated tumor targeting and biodistribution of the void HFn. HFn labelled with Alexa fluor 660 were injected into the tail vein of tumor bearing mice. […] There is then a quick disappearance of the fluorescent signal.

[5] = tested on: panel of murine and human cell lines of cancer, mainly breast cancer; test: Flow cytometry / confocal interaction of FITC-labelled HFn with cancer cell lines; assay type: cell-based
Experimental: Regarding in vitro activity, HFn interaction with cancer cells was assessed by flow cytometry after incubation of FITC-labelled HFn with a panel of murine and human cell lines of cancer, mainly breast cancer, for 2 h at 4° C. HUVEC cells were selected as healthy cells with high TfR1 expression.

Row | Substance | tumor progression / antitumor potential [1] | cardiotoxicity by mitochondrial morphology [2] | mean Hydrodynamic size [3] | time at which the liver signal completely disappears ([4]; after injection) | tumor tissue penetration ([4]; confocal images on tumor cryosections) | route of excretion ([4]; fluorescence in kidneys, bladder and urine) | accumulation in the liver ([4]; mouse, in vivo) | distribution to lung, brain and heart ([4]; mouse, in vivo) | localization in kidneys and spleen ([4]; mouse, in vivo) | time at which the tumor is reached after injection ([4]; tail vein injection, fluorescence in vivo and ex vivo) | specificity of interaction with cell lines ([5]; competition with unlabelled HFn, 2 h at 4° C.) | internalization and colocalization ([5]; confocal microscopy)
1 | TZ: monoclonal antibody Trastuzumab | good capability to reduce tumor progression | pathological increase in mitochondria area coupled with cristae depletion | – | – | – | – | – | – | – | – | – | –
2 | HFn: recombinant nanocage of the heavy chain of human ferritin produced in E. coli | – | – | 11.98 | 48 h | goes deep into the tumor tissue | renal excretion | massive accumulation in the liver | don't seem to be reached by HFn | little localization in kidneys and spleen within the first two hours post injection | 1 h | specific | quickly internalized and colocalize with the transferrin receptor 1
